This note sets out measurements from patent publication US20060292634A1 (CATCHMABS B V, published 2006).

This experiment deals with T1, RNase A (bovine, UniProt P61823 27-150).
T1 construct: Coated in immunotubes for panning; also called bovine RNase A
T1 sequence (looked up): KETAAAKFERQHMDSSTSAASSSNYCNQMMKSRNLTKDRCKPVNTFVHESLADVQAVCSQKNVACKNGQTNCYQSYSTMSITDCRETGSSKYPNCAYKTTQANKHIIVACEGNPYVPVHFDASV
The experiment can be described thus: phage panning on RNase A coated immunotubes.

B1: iMab130 displayed on phage as g3 fusion (designed binder)
chain: NVKLVEKGGNFVENDDDLKLTCRASGYAYTYIYMGWFRQAPNDDSTNVATIDSGGGGTLYGDSVKERFDIRRDKGSNTVTLSMDDLQPEDSAEYNCAAGGYELRDRTYGQRGQGTDVTVSS
For the molecule B1, the binding result is reported as “no binding”.
